From ChEMBL document CHEMBL1138975, “Design and synthesis of 4-substituted-8-(2-phenyl-cyclohexyl)-2,8-diaza-spiro[4.5]decan-1-one as a novel class of GlyT1 inhibitors: achieving selectivity against the mu opioid and nociceptin/orphanin FQ peptide (NOP) receptors” (Bioorg Med Chem Lett, 2006)

By UniProt entry, the sequences of proteins in these tests, tags left out.
UniProt P35372, whole entry, looked up: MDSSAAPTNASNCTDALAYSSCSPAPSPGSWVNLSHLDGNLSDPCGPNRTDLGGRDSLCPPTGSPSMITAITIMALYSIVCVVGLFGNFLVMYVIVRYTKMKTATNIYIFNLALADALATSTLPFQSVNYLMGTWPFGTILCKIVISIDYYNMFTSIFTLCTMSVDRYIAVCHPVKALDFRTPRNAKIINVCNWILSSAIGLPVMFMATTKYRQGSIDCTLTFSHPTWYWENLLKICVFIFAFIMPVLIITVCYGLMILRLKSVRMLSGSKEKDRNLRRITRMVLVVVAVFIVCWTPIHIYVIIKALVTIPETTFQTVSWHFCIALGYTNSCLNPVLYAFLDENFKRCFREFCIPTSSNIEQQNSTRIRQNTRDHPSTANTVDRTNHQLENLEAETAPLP

Target: Mu-type opioid receptor (Homo sapiens, UniProt P35372)
Assay: Displacement of [3H]naloxone from mu opioid receptor expressed in BHK cells

**Q.** For `O=C1NC[C@H](c2ccc(F)cc2)C12CCN([C@@H]1CCCC[C@@H]1c1ccc(F)cc1)CC2`, which IC50 is on record?
**A.** 6.7 µM

**Q.** With `O=C1NC[C@@H](c2ccc(F)cc2)C12CCN([C@@H]1CCCC[C@@H]1c1ccc(F)cc1)CC2` as the molecule, how does the IC50 read?
**A.** 1.09 µM

**Q.** `O=C1NC[C@H](c2ccccc2)C12CCN([C@H]1CCCC[C@H]1c1ccccc1)CC2` was tested. Which IC50 did it give?
**A.** 3.49 µM

**Q.** Which IC50 does the source give for `O=C1NC[C@H](c2ccc(F)cc2)C12CCN([C@H]1CCCC[C@H]1c1ccc(F)cc1)CC2` here?
**A.** > 10 µM

**Q.** With `O=C1NC[C@@H](c2ccccc2)C12CCN([C@H]1CCCC[C@H]1c1ccccc1)CC2` as the molecule, how does the IC50 read?
**A.** > 10 µM

**Q.** With `O=C1NC[C@@H](c2ccc(F)cc2)C12CCN([C@H]1CCCC[C@H]1c1ccc(F)cc1)CC2` as the molecule, how does the IC50 read?
**A.** 1.55 µM

**Q.** How did the IC50 turn out when `O=C1NC[C@H](c2ccccc2)C12CCN([C@@H]1CCCC[C@@H]1c1ccccc1)CC2` was run?
**A.** 5.48 µM

**Q.** For `O=C1NCC(c2ccccc2)C12CCN(C1CCCCC1c1ccccc1)CC2` (stereo not drawn), which IC50 is on record?
**A.** 3.92 µM
